From BindingDB's records for US8530494

The chains behind the UniProt entries cited, without tags or fusion partners.
UniProt P41143, whole entry, looked up: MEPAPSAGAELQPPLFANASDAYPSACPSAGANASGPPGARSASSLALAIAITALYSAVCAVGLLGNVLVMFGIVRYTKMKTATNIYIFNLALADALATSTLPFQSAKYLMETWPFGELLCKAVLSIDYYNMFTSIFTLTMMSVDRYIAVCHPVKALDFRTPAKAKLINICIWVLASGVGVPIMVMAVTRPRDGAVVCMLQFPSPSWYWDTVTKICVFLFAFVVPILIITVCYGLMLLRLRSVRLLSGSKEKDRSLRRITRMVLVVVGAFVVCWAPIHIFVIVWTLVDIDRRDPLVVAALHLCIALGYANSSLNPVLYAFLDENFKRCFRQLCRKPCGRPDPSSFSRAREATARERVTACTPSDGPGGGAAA

Target: Delta-type opioid receptor (Homo sapiens, UniProt P41143)
Experiment: ASSAY_NAME: Binding Assay DESCRIPTION: Binding assay of certain compounds of this invention to the opioid receptor was determine using radioligand binding assay (screening and dose-displacement).

`CC1(C)c2[nH]nc(Nc3ncnc4ccoc34)c2CN1C(=O)N[C@H]1C[C@@H]1c1ccccc1` showed a Ki of 0.058 µM.
